Molecular target: recombinant human PI3Kδ (6-His(p110-p85α)) (Homo sapiens (Human), UniProt O00329)
Assay: Enzymatic activity assay for recombinant human PI3Kδ (ADP-Glo)
Assay type: biochemical
Details: 0.6 nM PI3Kδ, 20 μM ATP, 80 μM DiC8-PIP2, ADP-Glo
Method: Enzymatic Activity Assay for Recombinant Human PI3K α, β, δ and γ.
The activity of recombinant human PI3Kγ ((aa144-1102)-6His) and PI3Kα, β, δ (6-His(p110-p85α)) was determined by measuring the ADP level after phosphorylation of DiC8-PIP2 using a commercially available ADP-Glo™ kit from Promega. The assay was carried out in white low volume 384 well plates in a final volume of 14 μl at R.T. The assay conditions contained the following: 50 mM Tris buffer pH 7.4, 2.1 mM DTT, 3 mM MgCl2, 0.05% CHAPS, 20 μM ATP, 80 μM DiC8-PIP2 and 1.2 nM PI3Kα, β, γ or 0.6 nM PI3Kδ. […] Routinely, inhibitors were pre-incubated with 3 μl of enzyme for 15 min prior to the addition of 2 μl substrate mixture for a further 60 min enzyme reaction. The phosphorylation was stopped with the addition of 3 μl ADP-Glo™ reagent (stop solution) followed by a 40 min incubation. Prior to detection 6 μl of ADP-Glo™ Kinase Detection Reagent was added and the plates were read in a micro plate reader using a Luminescence filter. All additions were followed by a short centrifugation step.

Sequences of proteins named here, by UniProt entry; tags and fusion partners are left off. A change or cut given only in a name is not applied to a line headed by its entry.
UniProt O00329: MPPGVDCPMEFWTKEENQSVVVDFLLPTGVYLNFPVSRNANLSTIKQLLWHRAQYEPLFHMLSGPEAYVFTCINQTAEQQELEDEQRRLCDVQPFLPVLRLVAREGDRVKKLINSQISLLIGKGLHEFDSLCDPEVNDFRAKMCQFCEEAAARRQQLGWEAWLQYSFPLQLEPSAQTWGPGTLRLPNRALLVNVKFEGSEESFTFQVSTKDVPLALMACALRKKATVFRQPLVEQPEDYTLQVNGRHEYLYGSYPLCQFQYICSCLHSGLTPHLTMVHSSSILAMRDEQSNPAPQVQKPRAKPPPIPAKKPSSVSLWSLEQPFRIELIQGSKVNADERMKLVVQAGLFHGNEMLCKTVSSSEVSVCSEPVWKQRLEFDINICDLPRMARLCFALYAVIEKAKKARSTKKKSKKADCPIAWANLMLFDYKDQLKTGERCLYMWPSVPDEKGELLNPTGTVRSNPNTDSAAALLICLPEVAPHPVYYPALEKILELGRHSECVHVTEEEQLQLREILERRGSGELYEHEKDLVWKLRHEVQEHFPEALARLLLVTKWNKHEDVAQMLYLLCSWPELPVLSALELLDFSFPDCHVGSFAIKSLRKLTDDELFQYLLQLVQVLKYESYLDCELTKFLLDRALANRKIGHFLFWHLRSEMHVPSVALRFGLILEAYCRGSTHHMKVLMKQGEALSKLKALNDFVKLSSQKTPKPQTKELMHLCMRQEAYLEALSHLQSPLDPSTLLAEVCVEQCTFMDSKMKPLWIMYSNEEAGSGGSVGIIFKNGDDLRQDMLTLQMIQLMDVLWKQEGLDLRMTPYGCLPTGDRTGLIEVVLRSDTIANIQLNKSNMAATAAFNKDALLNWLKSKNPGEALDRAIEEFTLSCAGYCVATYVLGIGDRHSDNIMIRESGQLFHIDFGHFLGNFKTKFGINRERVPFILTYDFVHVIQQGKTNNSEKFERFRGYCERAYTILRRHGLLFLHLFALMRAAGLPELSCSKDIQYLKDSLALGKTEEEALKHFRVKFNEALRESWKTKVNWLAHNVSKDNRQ

| IC50 [nM] | Structure (SMILES) |
| --- | --- |
| 1.4 | Cc1nc(Nc2cccc(N3CCOCC3=O)n2)sc1-c1cc2c(c(S(C)(=O)=O)c1)C(=O)N([C@@H](C)C1CC1)C2 [Example 7, 2-[(1S)-1-Cyclopropylethyl]-5-(4-methyl-2-{[6-(3-oxomorpholin-4-yl)pyridin-2-yl]amino}-1,3-thiazol-5-yl)-7-(methylsulfonyl)-2,3-dihydro-1H-isoindol-1-one] |
| 1.1 | Cc1nc(Nc2cccc(N3CCOCC3=O)n2)sc1-c1cc2c(c(S(=O)(=O)NC3COC3)c1)C(=O)N([C@@H](C)C1CC1)C2 [Example 31, 2-[(1S)-1-Cyclopropylethyl]-6-(4-methyl-2-{[6-(3-oxomorpholin-4-yl)pyridin-2-yl]amino}-1,3-thiazol-5-yl)-N-(oxetan-3-yl)-3-oxo-2,3-dihydro-1H-isoindole-4-sulfonamide] |

Source: patent US10961236B2, “(S)-2-(1-cyclopropylethyl)-5-(4-methyl-2-((6-(2-oxopyrrolidin-1-yl)pyridin-2-yl)amino) thiazol-5-yl)-7-(methylsulfonyl)isoindolin-1-one as a phosphatidylinositol 3-kinase inhibitor” (AstraZeneca AB, priority 2016, dated 2021)
